Values quoted from earlier work, collected in US20100120787A1, “MODIFICATION OF AMYLOID-BETA LOAD IN NON-BRAIN TISSUE” (MODGENE, LLC, priority 2008, published 2010).

absorption after oral administration (human, in vivo, po): well absorbed
change in pharmacokinetics on repeated dosing (repeated dosing): no significant change
Compound: Cc1ccc(NC(=O)c2ccc(CN3CCN(C)CC3)cc2)cc1Nc1nccc(-c2cccnc2)n1 [STI-571]
